scFv variants of Ab-14 (heavy chain) against a SARS-CoV-2 spike peptide

Antigen: PDVDLGDISGINAS, a 14-residue peptide of the SARS-CoV-2 spike HR2 region.

Each scFv is VH, three GGGGS repeats, VL, as in the parent Ab-14, and differs from it in the CDRs of the heavy chain only.
VH: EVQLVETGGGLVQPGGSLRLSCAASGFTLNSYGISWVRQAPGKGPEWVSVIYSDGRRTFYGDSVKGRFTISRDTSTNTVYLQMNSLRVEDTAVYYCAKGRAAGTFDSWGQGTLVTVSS
VL: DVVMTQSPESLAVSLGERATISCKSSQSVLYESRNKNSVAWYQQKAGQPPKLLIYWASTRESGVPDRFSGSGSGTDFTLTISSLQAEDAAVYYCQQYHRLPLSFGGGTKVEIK

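The starting antibody came from a phage panning campaign against this peptide. AAYL49 was designed without a model: most single CDR substitutions and a random sample of double and triple ones. AlphaSeq pools MATa yeast showing the antibodies with MATalpha yeast showing the peptide. Pairs that bind mate more often; barcode pairs of the diploids are counted by sequencing. Scores were corrected for input abundance and mapped to Kd with protein pairs of known affinity run in the same pool. The assay was run in three technical replicates.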

Variants are written as CDR1, CDR2 and CDR3 of the heavy chain (limits as in the source). Parent: GFTLNSYGIS, VIYSDGRRTFYGDSVK, GRAAGTFDS. The read-out is the apparent dissociation constant on a log10 scale (nM): the lower, the stronger. A mean of the replicates is given; it leaves out those without a signal. Where no diploid with the target was found in that replicate, the entry reads "n.d.": below detection, most likely a poor binder, though not proof of it. For reference, the parent read 0.65 as the reference entry and 4.11 (one replicate of three) as a member of this library. Three control strains display no target. For library AAYL49, 15% of the pairings with them gave a signal, with a median of 4.06 and one signal in twenty below 2.83, so weak values seen in few replicates may be background. The control count says in how many pairings with the empty strains this scFv gave a signal, with their mean in brackets.

CDR-H1 | CDR-H2 | CDR-H3 | log10 Kd (nM) by replicate | log10 Kd (nM), mean | empty controls
GFTWNSYGIS | VIYSDGRRTFYGDSVK | RRAAGTFDS | n.d. n.d. n.d. | n.d. | 0 of 9
EFTLNSYGIS | VIYSDGRRTFYGDSVK | DRAEGTFDS | n.d. n.d. n.d. | n.d. | 3 of 9 (3.39)
GFTLNSSGIN | QIYSDGRRTFYGDSVK | GRAAGTFDS | 4.26 3.76 5.42 | 4.48 | 4 of 9 (4.34)
GFTCNWYGIS | VIYSDGRRTLYGDSVK | GRAAGTFDS | n.d. n.d. n.d. | n.d. | 0 of 9
KFTLNSYGIS | VIYSDGRRTFYGDSVK | GRHAGTFDC | 4.59 4.04 3.89 | 4.17 | 1 of 9 (4.86)
GFTLNSYGIS | VYYSQGRRTFYGDRVK | GRAAGTFDS | n.d. 3.39 4.01 | 3.70 | 3 of 9 (3.79)
GFTLNSYGIS | VIYSDGQRTFYGDSVA | GRAAGTFDS | 1.15 1.46 1.36 | 1.32 | 4 of 9 (3.75)
GFTLNSDGAS | VIYSDKRRTFYGDSVK | GRAAGTFDS | n.d. n.d. 4.60 | 4.60 | 2 of 9 (3.98)
GFTLCSYGIS | VIYSDGRRTTYGDSVK | GRAAGTFDS | n.d. n.d. n.d. | n.d. | 1 of 9 (2.62)
GFTLNSIGIS | VIYSDGRRTFYTDSVK | SRAAGTFDS | n.d. 2.82 n.d. | 2.82 | 1 of 9 (3.36)
GFPLNSYGIS | VIYSDGTRTFYGDEVK | GRAAGTFDS | n.d. n.d. n.d. | n.d. | 1 of 9 (3.15)
GFTLNAYGIS | VIYSDGRRTFYGDSVK | GRAAGTFDS | 1.10 1.14 1.07 | 1.10 | 4 of 9 (4.02)
AFTLNSYGIS | VIASDGRRTFYGDSVE | GRAAGTFDS | n.d. n.d. 5.00 | 5.00 | 1 of 9 (4.12)
NFTLNSYGIS | VIYSDGRRTFYGDSVK | QRAAGEFDS | n.d. n.d. n.d. | n.d. | 0 of 9
GFTLNSYGIS | VIYSDVSRTNYGDSVK | GRAAGTFDS | 4.52 5.05 5.31 | 4.96 | 1 of 9 (4.50)
GFTLNAYGIS | VIYSTGRRTFYGESVK | GRAAGTFDS | 3.79 3.73 n.d. | 3.76 | 6 of 9 (5.34)
GFTLNSYGIS | AIYSDGRRTFYGDSVK | GIAAGTFDM | n.d. n.d. n.d. | n.d. | 0 of 9
GFTLNSYGIS | VIYSDGRRTFEGDSVK | YRAAGTFDH | n.d. 3.34 n.d. | 3.34 | 1 of 9 (4.52)
GFTLNDYGIS | VIYSDGRRTFYGDRVK | GRAAGLFDS | 6.59 3.68 6.43 | 5.57 | 3 of 9 (4.88)
GFTCNPYGIS | VIYSDGRRTFYGDSVV | GRAAGTFDS | 3.55 3.55 5.26 | 4.12 | 6 of 9 (4.59)
GFTLNSYGIS | VLYSDGRRTFIGDSVK | GRAAGNFDS | 4.00 n.d. 6.11 | 5.05 | 3 of 9 (4.20)
GETLWSYGIS | VIYSDGRRTFYGDSVK | CRAAGTFDS | n.d. n.d. n.d. | n.d. | 0 of 9
GETLNSYGIS | VIGSDGRRTFYGDIVK | GRAAGTFDS | n.d. n.d. n.d. | n.d. | 1 of 9 (5.20)
GFTLNSYGIS | VIYYDGRRTFYGDSGK | GRANGTFDS | 3.41 4.13 3.99 | 3.84 | 7 of 9 (4.89)
GFTLNSYGIS | VIYSDGRRTFYGDSVK | GRAAGGFDY | 1.44 1.83 2.17 | 1.81 | 1 of 9 (5.45)
GFTLNSYGIS | VIYSDERRTFFGDSVK | GRAAGTFDS | n.d. n.d. n.d. | n.d. | 0 of 9
GFTLNSYGIS | VIYSDGCRTFYGDSIK | GRAAGTYDS | n.d. n.d. n.d. | n.d. | 3 of 9 (3.81)
GFTLASYGIS | VIYSDGYRTFYGDSVK | GRAAGFFDS | n.d. n.d. n.d. | n.d. | 0 of 9
GFTYNSYGIS | VIYSDGRRTFYGSSVK | GRAAGTFSS | n.d. n.d. 4.21 | 4.21 | 4 of 9 (4.93)
GFTINSYGFS | VIYSDGRRTFYGDSVK | GRYAGTFDS | n.d. n.d. n.d. | n.d. | 2 of 9 (4.63)
IFTLNSYGIS | VIYQDGRSTFYGDSVK | GRAAGTFDS | 6.18 4.13 4.72 | 5.01 | 9 of 9 (4.91)

2 of these entries, quoted again:

CDR-H1	CDR-H2	CDR-H3	log10 Kd (nM) by replicate	log10 Kd (nM), mean	empty controls
GFTLNDYGIS	VIYSDGRRTFYGDRVK	GRAAGLFDS	6.59 3.68 6.43	5.57	3 of 9 (4.88)
GFTLNSYGIS	VYYSQGRRTFYGDRVK	GRAAGTFDS	n.d. 3.39 4.01	3.70	3 of 9 (3.79)

Data: MIT Lincoln Laboratory AlphaSeq set, Engelhart et al. 2022, doi:10.1038/s41597-022-01779-4, as distributed in FLAb.